The text below walks through data of PubChem BioAssay AID588519 (ICCB-Longwood Screening Facility, Harvard Medical School, 2011).

This is a selection; strong and weak results do not stand in their true shares. Some tests of the compounds listed are not included; inactive here does not mean inactive elsewhere. Active and inactive are the calls of the source. Cut-off read from the data, not from the text of the source: active = % elongation below about 90%; inactive = the rest, inconclusive results apart.

The target of the assay is Genome polyprotein (Poliovirus type 1 (strain Mahoney)) (UniProt P03300). The assay can be described thus: inhibitors of poliovirus polymerase RNA elongation – biochemical, fluorescence polarization, total intensity, primary screen (AID 588519). To be noted: stronger effect = lower value, compound at 16.7 µg/mL.
Regarding `CCCCOc1ccccc1C(=O)NCC1(N(C)C)CCCCC1`, the % elongation is inactive: 102%.

`CN(C)c1ccc(C(=O)NCC2(N(C)C)CCCCC2)cc1`: the % elongation was inactive: 101%.

Consider `CN(C)C1(CNC(=O)c2ccccc2[N+](=O)[O-])CCCCC1`, for which the % elongation is inactive: 110%.

As for `CCOc1cccc(C(=O)NCC2(N(C)C)CCCCC2)c1`, the % elongation was inactive: 107%.

Turning to `COc1ccc(OC)c(C=C(C#N)C#N)c1`, the % elongation was inactive: 97%.

In the case of `O=C(NCC1(N2CCOCC2)CCCCC1)c1cnc(Cl)c(Cl)c1`, the % elongation is inactive: 102%.

`CN(C)C1(CNC(=O)c2ccccc2F)CCCCC1`: the % elongation was inactive: 110%.

As to `CN(C)C1(CNC(=O)c2cccc(Cl)c2)CCCCC1`, the % elongation was inactive: 105%.

Turning to `CC(C)COc1ccc(C(=O)NCC2(N(C)C)CCCCC2)cc1`, the % elongation was inactive: 104%.

`O=C(OC1CN2CCC1CC2)C(CO)(c1ccccc1)c1ccccc1` (centres undefined): the % elongation is inactive: 108%.

Turning to `COc1cccc(C(=O)NCC2(N3CCOCC3)CCCCC2)c1`, the % elongation was inactive: 107%.

On to `CC(C)Oc1ccc(C(=O)NCC2(N(C)C)CCCCC2)cc1`, for which the % elongation is inactive: 105%.

As to `O=C(NCC1(N2CCCCC2)CCCCC1)c1ccc2c(c1)OCCO2`, the % elongation was inactive: 98%.

`COc1cc(C(=O)NCC2(N(C)C)CCCCC2)cc(OC)c1OC`: the % elongation is inactive: 112%.

Regarding `Cc1cccc(C(=O)NCC2(N(C)C)CCCCC2)c1`, the % elongation is inactive: 107%.

Take `CN1C2CCC1CC(OC(=O)C(O)(c1ccccc1)c1ccccc1)C2` (centres undefined): the % elongation is inactive: 99%.

As for `CN(C)C1(CNC(=O)c2ccncc2)CCCCC1`, the % elongation was inactive: 104%.

Regarding `COc1ccc(C(=O)NCC2(N(C)C)CCCCC2)cc1Cl`, the % elongation is inactive: 103%.

Take `N#CC(C#N)=Cc1ccccc1`: the % elongation is active: 80%.
